This assay deals with ligand binding domain of human RORγ (A262-S507) (Homo sapiens, UniProt P51449). Briefly: General RORγ SPA binding assay (competition with [3H]25-hydroxycholesterol). Conditions: inhibition of [3H]25-hydroxycholesterol binding.

Protein sequences, listed by entry. Tags and fused reporters are not part of them. Residues count along the entry.
UniProt P51449, 262-507 limits assumed: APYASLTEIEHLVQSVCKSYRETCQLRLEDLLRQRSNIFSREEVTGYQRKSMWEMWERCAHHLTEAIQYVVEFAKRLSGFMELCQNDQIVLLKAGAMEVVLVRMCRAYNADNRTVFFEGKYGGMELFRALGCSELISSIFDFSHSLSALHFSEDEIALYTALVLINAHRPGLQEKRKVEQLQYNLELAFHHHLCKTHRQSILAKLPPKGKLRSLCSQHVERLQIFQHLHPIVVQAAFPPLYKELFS

Structures are written as SMILES.

One may read the IC50 as the concentration that inhibits the measured activity by half. Read a high IC50 as lower potency.

As to `Nc1ncc(C(F)(F)COc2cccc(C(F)(F)F)n2)c(C2CCN(C(=O)Nc3c(F)cccc3F)CC2)n1`, the IC50 came to 1.9 nM.

These data come from patent US10035790B2, “RORγ modulators” (BRISTOL-MYERS SQUIBB COMPANY, priority 2012, dated 2018).
